MC4R barr agon: MC4R agonists recruiting beta-arrestin, primary screen, cell-based, luminescence, agonist arm of biased-ligand search; U2OS MC4R beta-arrestin complementation; percent of melanotan II response, DMSO zero; 0.98% of 360,000 active; Melanocortin receptor 4 (Homo sapiens), P32245; activation, % at 8.9 µM;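 active means activation above a per-plate cutoff, the mean activation of sample wells on that plate plus 3 SD, cut at about 8% in these data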
ARFGAP1 inh: inhibitors of rat ARFGAP1 GAP activity, primary screen, biochemical, fluorescence polarization, GDP tracer; Arfgap1-stimulated ARF1 GTP hydrolysis, GDP FP detection; inhibition, % at 16.5 µM; AID 651572, 2012; 0.26% of 360,000 active;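 active means inhibition above a per-plate limit, mean inhibition of low control wells plus 3 SD, cut at about 25% in these data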;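 further: 0% = DMSO wells with enzyme and 100% = wells lacking Arfgap1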
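material = rat Arfgap1 catalytic domain, aa 1-136 | also added = human ARF1(Δ1-17)-GTP substrate | compound dosing = one concentration, 16.5 µM, DMSO 1.26% | times = GTP hydrolysis reaction 2 h at 25 °C | measured by = FP, GDP Alexa 633 tracer displaced from anti-GDP antibody, 620/688 nm | evaluation = percent inhibition of Arfgap1-stimulated GTP hydrolysis | replication = single well per compound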
CendR NRP1 mod: modulators of CendR peptide binding to NRP-1, primary screen, biochemical, fluorescence polarization, uHTS; Neuropilin-1 (Homo sapiens), O14786; FAM-RPARPAR peptide binding to NRP-1; inhibition, % at 25 µM; 0.85% of 360,000 active; AID 602438, 2012;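 active means inhibition or corrected inhibition above about 18%, plus a signal ratio from 0.5 to 1.5, limit read from the data, passing the limit was not always enough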
MC4R antag cAMP: MC4R antagonists of cAMP signaling, primary screen, cell-based, TR-FRET, antagonist arm of biased-ligand search; Melanocortin receptor 4 (Homo sapiens), P32245; MC4R-expressing cells, MTII-stimulated cAMP, LANCE TR-FRET; inhibition, % at 6.5 µM; 0.48% of 360,000 active; AID 540295, 2011;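 active means inhibition above its plate's cutoff, the mean of tested wells on that plate plus 3 SD, cut at about 29% in these data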;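 further: 0% = Melanotan II alone and 100% = Melanotan II plus saturating MCL0020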
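Material: U2OS-MC4R stable cell line | Reagent: Melanotan II challenge after compound preincubation | Doses: One concentration, 6.5 µM nominal | Incubation: 30-min compound preincubation, 1-h Melanotan II challenge, 1-h detection, room temperature | Signal: TR-FRET cAMP assay | Replicates: One well per compound, no replicates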
UUG fidelity: yeast start codon fidelity modulation; AID 602363; activity score, % at 18.7 µM; S. cerevisiae UUG-firefly luciferase reporter, luminescence/redox ratio; 0.13% of 350,000 active;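 active means replicate mean at a twofold rise or more, about +100% in these data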;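 further: firefly luciferase made from a UUG start codon reports start codon fidelity; reporter light over untreated wells divided by growth signal over untreated wells; some hits fall short of that in this replicate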
ASAP1 GAP inh: inhibitors of human ASAP1 ArfGAP activity, primary screen, biochemical, fluorescence polarization; Arf-GAP with SH3 domain, ANK repeat and PH domain-containing protein 1 (Homo sapiens), …; ASAP1-stimulated ARF1 GTP hydrolysis, GDP FP detection; inhibition, % at 16.5 µM; 0.19% of 360,000 active; AID 624377, 2012; in the data active means inhibition above about 25%;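 further: 0% = vehicle with enzyme and substrate and 100% = no enzyme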
MC4R barr ag: MC4R beta-arrestin agonists, retest, confirmation, cell-based, luminescence, U2OS; shares compounds with MC4R barr agon; U2OS MC4R beta-arrestin recruitment; scaled DMSO 0%, Melanotan II 100%; activation, % at 8.9 µM; 31% of 2,400 active;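 active means mean activation across replicates above the hit cutoff set in the earlier primary screen, cut at about 8% in these data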
MOR DOR agonist: agonists of MOR-DOR heterodimerization, counter-screen for MC4R biased agonist project, cell-based, luminescence. activation, % at 9.2 µM. 5.8% of 2,400 active. shares compounds with MC4R barr agon. U2OS PathHunter beta-arrestin, beta-gal luminescence; percent of deltorphin B response, DMSO zero;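 active means mean activation across replicates exceeds the hit threshold derived in the earlier primary screen, cut at about 18% in these data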;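 further: 100% = deltorphin B at 0.9 µM final and 0% = DMSO alone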
Starred values were filed as active, the others as inactive; . = not tested or not shown. A selection: hits, their analogues and other compounds. The true share with any hit is near 2.3%.

Protein sequences, listed by entry. Tags and fused reporters are not part of them.
Melanocortin receptor 4 (Homo sapiens), P32245, UniProt P32245, whole entry, looked up: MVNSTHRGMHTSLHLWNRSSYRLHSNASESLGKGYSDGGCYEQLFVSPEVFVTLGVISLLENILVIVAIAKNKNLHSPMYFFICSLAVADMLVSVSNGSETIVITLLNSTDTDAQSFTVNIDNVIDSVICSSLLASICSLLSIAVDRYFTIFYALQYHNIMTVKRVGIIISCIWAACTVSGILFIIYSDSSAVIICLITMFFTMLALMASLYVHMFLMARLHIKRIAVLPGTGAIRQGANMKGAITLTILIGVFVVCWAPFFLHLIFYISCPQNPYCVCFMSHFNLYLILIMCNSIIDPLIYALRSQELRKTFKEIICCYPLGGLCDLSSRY
Neuropilin-1 (Homo sapiens), O14786, UniProt O14786, whole entry, looked up: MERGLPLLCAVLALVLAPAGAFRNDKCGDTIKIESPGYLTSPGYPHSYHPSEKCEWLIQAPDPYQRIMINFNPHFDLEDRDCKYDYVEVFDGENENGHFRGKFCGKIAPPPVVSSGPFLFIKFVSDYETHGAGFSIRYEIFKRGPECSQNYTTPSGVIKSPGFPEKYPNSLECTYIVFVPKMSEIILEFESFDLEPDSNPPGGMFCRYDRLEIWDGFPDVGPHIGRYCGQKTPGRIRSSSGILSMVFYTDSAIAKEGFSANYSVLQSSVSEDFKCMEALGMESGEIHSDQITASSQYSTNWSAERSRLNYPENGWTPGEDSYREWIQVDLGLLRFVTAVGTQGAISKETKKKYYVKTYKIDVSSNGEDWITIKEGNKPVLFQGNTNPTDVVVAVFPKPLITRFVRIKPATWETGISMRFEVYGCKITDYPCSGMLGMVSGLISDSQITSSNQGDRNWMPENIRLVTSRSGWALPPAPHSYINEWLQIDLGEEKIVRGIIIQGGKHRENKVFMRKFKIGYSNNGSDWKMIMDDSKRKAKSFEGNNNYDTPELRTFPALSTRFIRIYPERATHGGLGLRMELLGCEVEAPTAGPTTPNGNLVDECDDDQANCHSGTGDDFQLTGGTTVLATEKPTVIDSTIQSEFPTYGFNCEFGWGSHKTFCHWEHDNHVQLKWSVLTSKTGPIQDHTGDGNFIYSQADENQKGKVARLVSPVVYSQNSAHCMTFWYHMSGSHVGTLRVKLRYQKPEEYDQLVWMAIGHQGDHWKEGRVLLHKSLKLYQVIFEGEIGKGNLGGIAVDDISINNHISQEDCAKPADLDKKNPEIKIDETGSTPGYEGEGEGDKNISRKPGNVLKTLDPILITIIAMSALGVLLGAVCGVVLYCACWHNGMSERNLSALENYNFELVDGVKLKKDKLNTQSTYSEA

canonical_smiles	MC4R barr agon	ARFGAP1 inh	CendR NRP1 mod	MC4R antag cAMP	UUG fidelity	ASAP1 GAP inh	MC4R barr ag	MOR DOR agonist
O=C(Nc1cc(-c2nc3ccccc3s2)ccc1Cl)c1ccc2c(c1)OCO2	24*	1	7	6	-14	-4	21*	2
O=C(NCC1CC1)[C@H]1[C@H](CO)[C@H]2Cn3c(cccc3=O)[C@@H]1N2C(=O)c1cccnc1	.	.	.	.	-11	.	.	.
Cc1[nH]c2ccccc2c1C(=O)CSc1ccc(Cl)cc1	12*	0	2	-11	-3	-5	3	6
Cc1[nH]c2ccccc2c1C(=O)CSc1nc2ccccc2[nH]1	2	16	5	0	-19	2	.	.
O=C(NC1CCCC1)N[C@@H]1C=C[C@H](CC(=O)N2CCOCC2)O[C@H]1CO	.	.	.	.	-15	.	.	.
O=S(=O)(c1cccc(F)c1)N1CC[C@@H]2[C@H](CO)Nc3ccc(C#Cc4cccc(F)c4)cc3[C@@H]21	.	.	.	.	-12	.	.	.
O=C1NC[C@@H](Cc2cccc3ccccc23)N(CCc2cc(C(F)(F)F)cc(C(F)(F)F)c2)C1=O	11*	-13	-5	-1	0	-4	9.8*	3
COc1cc(C(=O)OCC(=O)NCc2ccc(F)cc2)cc(NC(=O)c2cccs2)c1OC	9.7*	13	3	-2	2	-1	2	4
COc1ccc(-n2c(C)cc(C(=O)COC(=O)c3cc(NC(=O)c4cccs4)c(OC)c(OC)c3)c2C)cc1	0	-6	9	2	-4	2	.	.
CC(C)NC(=O)N1C[C@@H]2[C@H](c3ccccc31)[C@H](CO)N2Cc1ccc(Cl)cc1	.	.	.	.	-11	.	.	.
C[C@@H]1CN([C@H](C)CO)C(=O)Cc2cc(NS(=O)(=O)c3cccs3)ccc2O[C@@H]1CN(C)C(=O)NC1CCCCC1	.	.	.	.	15	.	.	.
CN(C)c1ccc(NC(=O)Cn2ncn3c(cc4ccccc43)c2=O)cc1	0	8	-5	5	-8	-17	.	.
CC(C)c1ccc(NC(=O)Cn2ncn3c(cc4ccccc43)c2=O)cc1	12*	4	-3	4	-16	2	2	8
C[C@@H]1CCCCO[C@@H](CN(C)Cc2ccc(C(=O)O)cc2)[C@H](C)CN([C@H](C)CO)C(=O)c2cc(NC(=O)Nc3cccc4ccccc34)ccc2O1	.	.	.	.	25	.	.	.
CN1C(=O)/C(=C/c2ccccc2OCc2ccccc2)NC1=S	-1	-2	8	-2	-4	9	.	.
CN1C(=O)/C(=C/c2ccccc2OCc2cccc(F)c2)NC1=S	30*	-3	11	-8	.	6	5	3
CCCCC(=O)Nc1sc2c(c1C(=O)OCC)CCC(C=O)=C2Cl	10*	.	-8	15	.	.	7	5
CCOC(=O)c1c(NC(=O)c2ccccc2Cl)sc2c1CCc1ccccc1-2	-2	0	9	16	.	-5	.	.
CCn1c(O)c(/C=N/N=C/c2ccc(OC)cc2)c2cc(C3=NNC(=O)CC3)ccc21	18*	-6	-214	13	-14	-22	7	7
O=C(CSc1cc(Cl)ccc1Cl)NC1CCCc2ccccc21 (stereo unspecified)	13*	5	12	4	-18	-2	3	5
O=C(CSc1nc2cc(Cl)ccc2s1)NC1CCCc2ccccc21 (stereo unspecified)	-1	-5	-11	5	.	-4	.	.
CCOC(=O)CCSc1nc(-c2ccc3c(c2)OCO3)cc(C(F)(F)F)c1C#N	-2	-2	6	1	.	1	.	.
CCOC(=O)CC(=O)CSc1nc(-c2ccc3c(c2)OCO3)cc(C(F)(F)F)c1C#N	25*	.	-24	28	-6	.	8.9*	5
COc1cc(CN2CCN(c3cccc(C)c3C)CC2)cc(Br)c1O	12*	1	-3	-17	5	-11	0	7
C[C@@H]1CN([C@H](C)CO)C(=O)c2cc(C3=CCCCC3)cnc2O[C@@H]1CN(C)S(=O)(=O)c1cn(C)cn1	.	.	.	.	3	.	.	.
CCOc1ccc(Cn2c3ccc(OC)cc3c3nc4ccccc4nc32)cc1	30*	3	99	-2	-5	-4	38*	15
CCn1c2ccc(OC)cc2c2nc3ccccc3nc21	.	-6	.	.	.	10	.	.
CCOc1cc(S(=O)(=O)Nc2cc(C)cc(C)c2)ccc1Cl	9.6*	14	-5	-2	.	2	6	8
CN1CCN(C2=CC3=CC(=C(C#N)C#N)CCC3CC2)CC1 (stereo unspecified)	15*	.	132	-24	.	.	14*	7
Cc1noc(C)c1NC(=O)N(C)C[C@@H]1Oc2ccc(NS(C)(=O)=O)cc2CC(=O)N([C@H](C)CO)C[C@@H]1C	.	.	.	.	-17	.	.	.
COc1cc2ccccc2cc1C(=O)OCc1nc2ccsc2c(=O)[nH]1	15*	-2	0	4	-13	3	4	6
CCn1cc(C(=O)NCc2cccc(C(F)(F)F)c2)c(=O)c2ccc(C)nc21	14*	-3	-4	3	-4	-6	2	4
CCn1cc(C(=O)OCC(=O)c2cc(C)n(-c3cccc(C(F)(F)F)c3)c2C)c(=O)c2ccc(C)nc21	2	-6	-2	1	-19	-2	.	.
Cc1cc(C)cc(NC(=O)Nc2ccc3c(c2)C(=O)N(C)[C@@H]2CC[C@@H](CC(=O)O)O[C@@H]2CO3)c1	.	.	.	.	-1	.	.	.
COc1ccc(F)cc1-c1cc(C(=O)NCc2ccc(C(F)(F)F)cc2)[nH]n1	4	-8	-4	2	-14	4	.	.
Cc1cc(F)cc(-c2cc(C(=O)NCc3ccc(C(F)(F)F)cc3)[nH]n2)c1	14*	2	-4	7	-13	2	3	6
CC(C)NC(=O)N(C)C[C@H]1Oc2ncc(-c3cccc(C#N)c3)cc2C(=O)N([C@@H](C)CO)C[C@@H]1C	.	.	.	.	-1	.	.	.

Gathered by group, the entries above containing an NH in an aromatic ring.
canonical_smiles	MC4R barr agon	ARFGAP1 inh	CendR NRP1 mod	MC4R antag cAMP	UUG fidelity	ASAP1 GAP inh	MC4R barr ag	MOR DOR agonist
Cc1[nH]c2ccccc2c1C(=O)CSc1ccc(Cl)cc1	12*	0	2	-11	-3	-5	3	6
Cc1[nH]c2ccccc2c1C(=O)CSc1nc2ccccc2[nH]1	2	16	5	0	-19	2	.	.
COc1cc2ccccc2cc1C(=O)OCc1nc2ccsc2c(=O)[nH]1	15*	-2	0	4	-13	3	4	6
COc1ccc(F)cc1-c1cc(C(=O)NCc2ccc(C(F)(F)F)cc2)[nH]n1	4	-8	-4	2	-14	4	.	.
Cc1cc(F)cc(-c2cc(C(=O)NCc3ccc(C(F)(F)F)cc3)[nH]n2)c1	14*	2	-4	7	-13	2	3	6
